Patent US20090275732A1, “Agent for improving circulatory disorder” (priority 2005, published 2009)

Experiments:
[1] = test system: blood flow volume at the lower limb of blood-removed rats; test: Effect on rat model with hemorrhagic blood flow decrease (Laser Doppler blood flow imaging of lower limb); format: in vivo; conditions: Wister male rat, about 70% blood exchange with 5% rHSA then 30% blood removal; dose 30% of total blood volume into right femoral vein; 25 minutes after administration
Description: Effect on rat model with hemorrhagic blood flow decrease For each Wister male rat (8-week-old), blood removal was performed under sevoflurane inhalation anesthesia (introduction 2.0%, maintenance 1.5%) to decrease the blood flow volume. Removal of 2 mL of blood from the right common carotid artery and administration of 2 mL of 5% rHSA from the right femoral vein were repeated nine times to exchange about 70% of the total blood volume with 5% rHSA, and ten minutes later, 30% of the total blood volume was removed from the right common carotid artery. After completion of blood removal, rHSA-FecycP or 5% rHSA as a control was rapidly administered to the right femoral vein in an amount of 30% of the total blood volume. Note that the blood removal and administration were performed at a rate of 1 mL/minute. Before blood removal, immediately after completion of blood removal, and 25 minutes after completion of administration, blood flow volumes at the lower limb were noninvasively measured using a Laser Doppler blood flow imaging device (manufactured by Monte System Corporation, MoorLDI-LKII).

[2] = test system: rat with obstructions in the bilateral common carotid arteries; test: Effect on ischemic cerebral dysfunction due to decrease in cerebral blood flow (ischemic attacks, death); format: in vivo; conditions: Fischer male rat, dose 3 mL/kg tail vein
Description: An experiment was performed on an effect of improving ischemic cerebral dysfunction caused by a decrease in a cerebral blood flow of a rat with obstructions in the bilateral common carotid arteries in the case of administration of rHSA-FecycP.
For each Fischer male rat (8-week-old), the bilateral common carotid arteries were ligated under ether light anesthesia to induce cerebral ischemia. rHSA-FecycP (1 and 3 mL/kg) or 5% rHSA (control, 3 mL/kg) was administered into the tail vein immediately after obstructions in the bilateral common carotid arteries, and observations were performed on the presence or absence of manifestation of ischemic attacks (paroxysmal jumping and convulsion) during 3.5 hours after completion of the obstructions and on the life or death during 24 hours after completion of the obstructions during wakefulness. The manifestation rate of the ischemic attacks (the number of manifestation cases/the number of use cases×100(%)) and death rate (the number of death cases/the number of use cases×100(%)) were used as indexes to examine the effect of the drug.

rat isolated hearts = test: Ischemic cardiac dysfunction by slow perfusion in rat isolated hearts (Langendorff method); conditions: whole course, slow perfusion ischemia and reperfusion; drug 0.2 mL/min for 60 minutes; n=7
Description: The heart of each Wister male rat (8- to 10-week-old) was removed under pentobarbital sodium anesthesia, and a cannula was inserted into the aorta in accordance with the Langendorff method to perfuse with a nutrition solution. In order to measure a heart function, i.e., the force of heart contraction, a balloon containing physiological saline was inserted into the left ventricle, and the resultant pressure waveform was analyzed to determine the end-diastolic pressure and maximum rising rate of the left ventricular pressure. As a nutrition solution, a Krebs-Henseleit solution (NaCl 118 mM, KCl 4.7 mM, KH2PO4 1.2 mM, MgSO4 1.2 mM, CaCl2 2.5 mM, NaHCO3 25 mM, glucose 11 mM, pH 7.4) aerated with a 95% O2-5% CO2 mixed gas and incubated at 37° C. was used, and the solution was perfused at a flow rate of 20 mL/min for 20 minutes to stabilize the state. […]
For each experiment group, at the respective time points from the start of slow perfusion to 120 minutes later, the end-diastolic pressure and maximum rising rate of the left ventricular pressure were measured.
Note that, for a normal control group (n=7), which was subjected to perfusion at a rate of 20 mL/min during the entire term of the experiment, the end-diastolic pressure and maximum rising rate of the left ventricular pressure were measured for comparison in the same way as above. […]

5% rHSA: recombinant human serum albumin, 5% solution, used as a control [reference compound]
Blood flow volume at the lower limb [1]: did not recover and further decreased | Manifestation rate of ischemic attacks ([2]; during 3.5 hours after obstruction): 80% | Death rate ([2]; during 24 hours after obstruction): 100% | End-diastolic pressure of the left ventricular pressure (rat isolated hearts): changed almost in the same way as the ischemia control group | Maximum rising rate of the left ventricular pressure (rat isolated hearts): changed almost in the same way as the ischemia control group
